Experimental data: patent US7642244B2, “Neuropeptide-2 receptor (Y-2R) agonists and uses thereof” (Hoffmann-La Roche Inc., priority 2005, dated 2010)

Sequences of proteins named here, by UniProt entry; tags and fusion partners are left off. A change or cut given only in a name is not applied to a line headed by its entry.
UniProt P50391: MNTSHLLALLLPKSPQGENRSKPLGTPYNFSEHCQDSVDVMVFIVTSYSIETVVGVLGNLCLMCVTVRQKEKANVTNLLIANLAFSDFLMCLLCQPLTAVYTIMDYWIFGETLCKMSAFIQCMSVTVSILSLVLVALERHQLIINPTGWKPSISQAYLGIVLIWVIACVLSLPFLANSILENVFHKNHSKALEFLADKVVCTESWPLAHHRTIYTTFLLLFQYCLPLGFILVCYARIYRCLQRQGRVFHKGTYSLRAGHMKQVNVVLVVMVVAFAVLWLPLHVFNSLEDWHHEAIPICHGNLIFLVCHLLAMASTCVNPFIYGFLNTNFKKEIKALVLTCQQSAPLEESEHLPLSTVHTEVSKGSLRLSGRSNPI
UniProt P49146, whole entry: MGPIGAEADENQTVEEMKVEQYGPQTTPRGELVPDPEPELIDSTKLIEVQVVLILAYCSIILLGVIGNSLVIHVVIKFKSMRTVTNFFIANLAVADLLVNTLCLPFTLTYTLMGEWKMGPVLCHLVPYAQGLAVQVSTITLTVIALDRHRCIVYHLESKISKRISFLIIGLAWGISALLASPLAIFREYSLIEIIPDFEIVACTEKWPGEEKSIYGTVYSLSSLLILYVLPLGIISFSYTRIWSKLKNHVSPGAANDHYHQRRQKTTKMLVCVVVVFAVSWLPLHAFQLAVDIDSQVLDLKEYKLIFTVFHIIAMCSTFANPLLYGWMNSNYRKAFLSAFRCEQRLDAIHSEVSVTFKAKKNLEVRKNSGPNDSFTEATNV
UniProt P25929, whole entry: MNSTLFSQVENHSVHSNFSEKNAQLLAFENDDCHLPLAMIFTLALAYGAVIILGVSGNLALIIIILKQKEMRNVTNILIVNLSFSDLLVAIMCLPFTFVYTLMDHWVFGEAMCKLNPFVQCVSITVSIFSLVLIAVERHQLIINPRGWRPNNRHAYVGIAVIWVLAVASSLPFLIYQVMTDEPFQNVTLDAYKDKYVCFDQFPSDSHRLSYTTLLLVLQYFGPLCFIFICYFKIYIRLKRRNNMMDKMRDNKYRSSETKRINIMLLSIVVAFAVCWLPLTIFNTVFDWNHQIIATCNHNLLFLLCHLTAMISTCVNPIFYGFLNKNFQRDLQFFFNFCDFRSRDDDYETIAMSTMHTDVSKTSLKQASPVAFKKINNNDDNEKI

Assays:
Format in all cases: cell-based
[1] = molecular target: Y4R (Homo sapiens, UniProt P50391); assay: Calcium flux assay (FLIPR), Y4R
Experimental: (§1) During the assay, fluorescence readings were taken simultaneously from all 384 wells of the cell plate every 1.5 seconds. […] The fluorescence was continuously monitored before, during and after sample addition for a total elapsed time of 100 seconds. Responses (increase in peak fluorescence) in each well following addition was determined. The initial fluorescence reading from each well, prior to ligand stimulation, was used as a zero baseline value for the data from that well.

[2] = molecular target: T1, Y5R (Homo sapiens, UniProt Q15761); assay: Calcium flux assay (FLIPR), Y5R
T1 sequence (Q15761 1-445): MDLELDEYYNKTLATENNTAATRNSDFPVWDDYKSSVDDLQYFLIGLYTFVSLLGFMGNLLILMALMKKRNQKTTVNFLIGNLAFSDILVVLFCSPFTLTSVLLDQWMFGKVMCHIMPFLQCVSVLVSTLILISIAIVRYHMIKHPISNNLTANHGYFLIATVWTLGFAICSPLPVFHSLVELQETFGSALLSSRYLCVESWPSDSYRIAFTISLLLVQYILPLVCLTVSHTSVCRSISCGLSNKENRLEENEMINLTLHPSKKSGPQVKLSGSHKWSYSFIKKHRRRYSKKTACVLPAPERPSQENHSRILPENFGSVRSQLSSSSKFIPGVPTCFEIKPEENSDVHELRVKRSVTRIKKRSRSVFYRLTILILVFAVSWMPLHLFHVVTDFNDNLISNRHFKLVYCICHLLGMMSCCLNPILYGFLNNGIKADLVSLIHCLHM
Experimental: as §1

[3] = molecular target: T2, human NPY2 receptor (HEK293/hNPY2R cells) (Homo sapiens, UniProt P49146); assay: Cyclic AMP assay, Y2R; settings: forskolin 5 μM, read-out: Y2R EC50 (nM) cAMP
T2 construct: expressed in transfected cells; host or cells: HEK-293 stably transfected with G protein chimera Gaqi9 (HEK293/hNPY2R)

[4] = molecular target: Y1R (Homo sapiens, UniProt P25929); assay: Calcium flux assay (FLIPR), Y1R
Experimental: as §1

[5] = molecular target: T3, human NPY2 receptor (Homo sapiens, UniProt P49146); assay: Calcium flux assay (FLIPR), Y2R; settings: HEK293/hNPY2R cells
T3 construct: expressed in transfected cells; host or cells: HEK-293 stably transfected with G protein chimera Gaqi9 (HEK293/hNPY2R)
Experimental: Cells were harvested with trypsin-EDTA and counted using ViaCount reagent. […] CO2 incubator overnight.
as §1

Substance: ((PEC30,000)CH2Cl2NHCOCH2CH2CO)Ile-Nle-Pqa-Arg-His-Tyr-Leu-Asn-Trp-Val-Thr-Arg-Gln-(NMe)Arg-Tyr-NH2 [Example 36]
- EC50 [1]: > 5000 nM
- EC50 [2]: > 5000 nM
- EC50 [3]: 7.8 nM
- EC50 [4]: > 5000 nM

Substance: ((PEG-40,000)CO)Ile-Lys-Pqa-Arg-His-Tyr-Leu-Asn-Trp-Val-Thr-Arg-Gln-(NMe)Arg-Tyr-NH2 (SEQ ID NO: 34) and Ile((PEG-40,000)CO)(ε)Lys-Pqa-Arg-His-Tyr-Leu-Asn-Trp-Val-Thr-Arg-Gln-(NMe)Arg-Tyr-NH2 [Example 35]
- EC50 [1]: > 5000 nM
- EC50 [2]: > 5000 nM
- EC50 [5]: 590 nM
- EC50 [4]: > 5000 nM

Substance: ((PEG-30,000)CH(CH3)CH2CO)Ile-Nle-Pqa-Arg-His-Tyr-Leu-Asn-Trp-Val-Thr-Arg-Gln-(NMe)Arg-Tyr-NH2 [Example 37]
- EC50 [1]: > 5000 nM
- EC50 [2]: > 5000 nM
- EC50 [4]: > 5000 nM

Substance: ((PEG-30,000)CH2CH2CO)Ile-Lys-Pqa-Arg-His-Tyr-Leu-Asn-Trp-Val-Thr-Arg-Gln-(NMe)Arg-Tyr-NH2 (SEQ ID NO: 32) and Ile((PEG-30,000)CH2CH2CO)(ε)Lys-Pqa-Arg-His-Tyr-Leu-Asn-Trp-Val-Thr-Arg-Gln-(NMe)Arg-Tyr-NH2 [Example 34]
- EC50 [1]: > 5000 nM
- EC50 [2]: > 5000 nM
- EC50 [3]: 18 nM
- EC50 [4]: > 5000 nM

Substance: Ile((PEG-30,000)CH2CH2NHCOCH2CH2CO)(ε)Lys-Pqa-Arg-His-Tyr-Leu-Asn-Trp-Val-Thr-Arg-Gln-(NMe)Arg-Tyr-NH2 [Example 41]
- EC50 [1]: > 5000 nM
- EC50 [2]: > 5000 nM
- EC50 [3]: 9.8 nM
- EC50 [4]: > 5000 nM
